Columns and labels:
HBEC-5i cells = experiment: Proximity ligation assay (PLA) in HBEC-5i cells; assay type: cell-based, human; conditions: 10 uM peptide, vs PBS (negative control)
Description: Proximity Ligation Assay (PLA): HBEC-5i cells were seeded into culture slides in 24 well plates (75,000 cells/well) in 500 μL of DMEM media supplemented with 10% fetal bovine serum. After 24 h, cells were washed with PBS and treated with 10 uM of Aβ peptide in serum free DMEM media. The next day after treatment, cells were washed twice with PBS and fixed in 4% PFA. For PLA analysis, cells were blocked with 3% BSA, permeabilized with triton-X, 0.5% and incubated with 1/500 dilution of Anti-Angiopoietin 2 (ab8452, abcam), 1/200 dilution of anti-β-Amyloid (#39377, abcam), 1/500 dilution of anti-β-Amyloid (#93320, Biolegend), 1/200 of anti-tie2 (#05-584, Millipore) or 1/200 of Anti-VEGF Receptor 2 antibody (ab11939, abcam) for overnight at 4 degree. Protein-protein interactions were analyzed using Duolink-based in situ PLA (Sigma-Aldrich), according to manufacturer's instructions. Signals were quantified using a confocal microscope and the Duolink Image Tool. Statistical analysis was performed on GraphPad Prism using Kruskal wallis test followed by Tukey's multiple comparison (*p<0.05; **p<0.01; ***p<0.001).

Sequences of proteins named here, by UniProt entry; tags and fusion partners are left off. A change or cut given only in a name is not applied to a line headed by its entry.
UniProt P05067: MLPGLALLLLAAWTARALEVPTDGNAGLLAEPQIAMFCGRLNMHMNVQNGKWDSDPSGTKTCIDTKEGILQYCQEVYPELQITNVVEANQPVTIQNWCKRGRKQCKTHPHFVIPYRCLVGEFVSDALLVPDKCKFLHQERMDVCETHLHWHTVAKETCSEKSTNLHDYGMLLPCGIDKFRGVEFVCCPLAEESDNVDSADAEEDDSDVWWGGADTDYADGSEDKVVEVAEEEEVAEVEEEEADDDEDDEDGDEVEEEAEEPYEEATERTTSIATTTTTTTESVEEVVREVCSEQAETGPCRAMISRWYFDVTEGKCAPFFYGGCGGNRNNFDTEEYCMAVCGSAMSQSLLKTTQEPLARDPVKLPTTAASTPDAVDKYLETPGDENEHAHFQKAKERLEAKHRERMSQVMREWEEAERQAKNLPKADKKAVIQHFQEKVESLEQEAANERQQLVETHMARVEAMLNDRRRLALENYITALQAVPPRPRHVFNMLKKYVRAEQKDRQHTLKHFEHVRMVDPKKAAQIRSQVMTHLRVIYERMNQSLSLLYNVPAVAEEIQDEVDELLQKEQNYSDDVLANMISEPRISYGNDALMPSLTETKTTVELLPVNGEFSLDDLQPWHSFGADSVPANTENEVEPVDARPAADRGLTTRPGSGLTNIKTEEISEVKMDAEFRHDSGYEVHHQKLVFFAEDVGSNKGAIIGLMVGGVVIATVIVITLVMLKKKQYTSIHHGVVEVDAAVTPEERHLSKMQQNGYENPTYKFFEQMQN

[1] = tested on: Human brain endothelial cells (HBEC-5i); experiment: Western blot of HBEC-5i cell lysates after peptide treatment; assay type: cell-based
Description: Human brain endothelial cells, HBEC-5i (ATCC® CRL-3245™) were cultured on 0.1% gelatin coated tissue culture plates in DMEM-F12 media (Gibco; cat. #10565-018) supplemented by 10% heat-inactivated fetal bovine serum (FBS) (Gibco; cat. #A31607-01) and 40 μg/ml endothelial growth supplement (Sigma-Aldrich; cat. #E2759). Cells were grown until they reached 70% confluency and then used for experiments.
Cell culture: Human brain endothelial cells were grown in 10 cm tissue culture plates. The cells were treated with either PBS, Aβ1-42 peptide (10 μM), Aβ1-16 peptide (10 μM), Ang-2 peptide (200 ng/ml) or VEGFA-165 (100 ng/ml) peptide for 24 hrs in a starving medium. After the treatment, the medium was removed, and cells were washed with PBS and then lysed with RIPA buffer that contained protease and phosphatase inhibitors. These cells were then used to analyze different proteins of interest.
Immunoblotting analysis and co-immunoprecipitation: For western blot analysis, the fractional homogenate samples were prepared with Dithiothreitol (DTT) in the sample buffer (100 mM Tris-Cl (pH 6.8), 4% (w/v) SDS, 0.2% (w/v) bromophenol blue, 20% (v/v) glycerol and 200 mM DTT). Homogenates were electrophoresed and immunoblotted with indicated antibodies. For co-immunoprecipitation, homogenates were first pre-cleaned by incubating with a bead slurry and centrifuged at 14,000×g for 4 minutes at 4° C. Beads were discarded, and supernatant kept for co-immunoprecipitation. Protein A or protein G beads were washed twice with wash buffer (10 mM Tris HCl pH 7.4, 150 mM NaCl, 1% Nonidet P-40, 1 mM EDTA, 1× Halt protease and phosphatase inhibitor cocktail and 20 mM N-Ethylmaleimide), centrifuged at 3,000×g for 2 minutes at 4° C. and incubated with the indicated antibody for 4 hours at 4° C. on a rotating shaker. Beads were then washed twice and incubated with pre-cleaned homogenates overnight at 4° C. Beads were washed, and the complex was eluted by using 2×50 μl SDS loading buffer without DTT and heating at 50° C. for 10 minutes. A second elution was carried out by 2×SDS buffer in the presence of DTT. The proteins in the eluate were resolved on the acrylamide gel according to standard practices. Immunoblotting was performed on nitrocellulose membranes using primary antibodies against the various proteins. The signal intensities were imaged by using the Odyssey infrared image system (LICOR), and relative levels of immunoreactivity were analyzed by the Image Studio Lite software.

## Aβ1-16 peptide: Aβ1-16 peptide (AnaSpec; AS-24225), soluble amyloid species (DAEFRHDSGYEVHHQK; Amyloid-beta protein 42; UniProt P05067 672-687, looked up, fragment)
HBEC-5i cells
  interaction between Aβ and Tie-2, and Aβ and Ang-2 (PLA signal): significant interaction
[1]; 24 hrs, 10 μM, compared to the other treatments
  phosphorylated VEGFR2: also increased
[1]; 24 hrs, 10 μM, vs PBS or Aβ1-42 peptide
  Tie-2 receptor expression: upregulated
[1]; 24 hrs, 10 μM, vs control or Aβ1-42 peptide-treated cells
  Ang-2 expression: upregulation of Ang-2
[1]; 24 hrs, Aβ peptides 10 μM, Ang-2 200 ng/ml, VEGFA-165 100 ng/ml, vs PBS-treated cells
  expression of VEGFR2: increase in the expression of VEGFR2
[1]; vs PBS-treated or Aβ (1-42)-treated cells
  expression of CD105: higher expression of CD105

From patent US20230210832A1, “METHODS FOR TREATING ALZHEIMER'S DISEASE” (priority 2020, published 2023)
